Consider one compound from ChEMBL document CHEMBL3124844 (J Med Chem, 2014).

For the assay, the species on record is Rattus norvegicus. Nature of the assay: Selectivity ratio of Ki for Sprague-Dawley rat brain DAT to Ki for Sprague-Dawley rat brain SERT.

Turning to `O=C(C[S+]([O-])C(c1ccc(Br)cc1)c1ccc(Br)cc1)NCCCc1ccccc1` (stereo unspecified), the Ratio Ki came out at 1.4.
